Source: patent US20100105727A1, “NOVEL BENZAMIDE DERIVATIVES AND PROCESS FOR THE PREPARTION THEREOF” (DONG-A-PHARM. CO., LTD., priority 2007, published 2010)

Chains of the proteins cited; added tags and fusions are not shown. Lines headed by an entry give the natural chain unless they say otherwise; changes in a name come on top.
UniProt Q12809: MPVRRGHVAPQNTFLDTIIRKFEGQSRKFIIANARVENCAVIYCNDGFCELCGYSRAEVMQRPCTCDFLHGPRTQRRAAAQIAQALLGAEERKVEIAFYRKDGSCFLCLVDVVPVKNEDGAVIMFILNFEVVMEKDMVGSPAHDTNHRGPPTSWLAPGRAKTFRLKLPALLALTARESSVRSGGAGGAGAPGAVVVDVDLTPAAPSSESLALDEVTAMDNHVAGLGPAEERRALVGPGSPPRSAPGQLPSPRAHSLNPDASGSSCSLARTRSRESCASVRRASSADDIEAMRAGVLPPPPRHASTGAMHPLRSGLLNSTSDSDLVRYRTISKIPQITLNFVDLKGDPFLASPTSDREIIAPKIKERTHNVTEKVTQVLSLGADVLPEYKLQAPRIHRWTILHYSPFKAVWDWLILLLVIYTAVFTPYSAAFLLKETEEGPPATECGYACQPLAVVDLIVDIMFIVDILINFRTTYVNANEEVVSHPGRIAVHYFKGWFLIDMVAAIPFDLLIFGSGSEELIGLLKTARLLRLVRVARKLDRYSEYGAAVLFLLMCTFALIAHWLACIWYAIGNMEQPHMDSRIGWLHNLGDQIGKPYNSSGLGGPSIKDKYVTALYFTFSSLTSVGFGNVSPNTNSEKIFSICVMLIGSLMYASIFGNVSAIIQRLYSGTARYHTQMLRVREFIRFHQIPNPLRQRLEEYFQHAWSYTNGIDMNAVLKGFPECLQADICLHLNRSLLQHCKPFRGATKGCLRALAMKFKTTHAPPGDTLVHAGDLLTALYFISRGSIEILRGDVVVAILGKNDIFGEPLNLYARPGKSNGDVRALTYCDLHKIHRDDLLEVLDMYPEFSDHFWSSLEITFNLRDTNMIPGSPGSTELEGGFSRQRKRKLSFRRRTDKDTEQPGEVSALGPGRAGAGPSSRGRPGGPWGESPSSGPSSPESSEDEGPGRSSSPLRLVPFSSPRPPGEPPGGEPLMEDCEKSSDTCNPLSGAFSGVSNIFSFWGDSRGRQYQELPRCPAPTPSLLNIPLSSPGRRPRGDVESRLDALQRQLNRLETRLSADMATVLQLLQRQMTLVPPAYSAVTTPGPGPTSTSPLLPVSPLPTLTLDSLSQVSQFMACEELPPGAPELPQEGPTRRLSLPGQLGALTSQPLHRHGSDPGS

Biological target: T1, hERG potassium channel (Homo sapiens, UniProt Q12809)
T1 construct: host or cells: HEK-293
Assay: Binding affinity of compounds for hERG receptor ([H3]-Astemizole displacement, HEK-293 membrane lysates)
Settings: % inhibition of specific binding of 1.5 nM [H3]-Astemizole at 0.2 μM test material
Method: Membrane lysates were obtained from mammalian HEK-293 cells expressing the hERG potassium channel and used in binding assay experiments. […] After incubation was completed, the radioactivity bound to the hERG K+ channel was counted. The affinity of each test material for the hERG K+ channel was calculated from % inhibition of specific binding of the radioligand to the hERG K+ channel, resulting from the action of the test material.

**Q.** How did the “hERG binding affinity (% at 0.2 μM)” value turn out when `COc1cc(N)c(Cl)cc1C(=O)NC1CCN(CCCOc2ccc(F)cc2)CC1OC` (centres unmarked) [Cisapride, cisapride, reference compound] was run?
**A.** 58% at 0.2 μM

**Q.** And the “hERG binding affinity (% at 0.2 μM)” value (listed as cisapride)?
**A.** 58%
